Values of other authors, collected in patent US20100221823A1, “METHOD FOR CULTURING MAMMALIAN CELLS TO IMPROVE RECOMBINANT PROTEIN PRODUCTION” (Amgen Inc., priority 2007, published 2010).

How the values were obtained:
[1] = spermine 2 mM; cited from earlier work
[2] = tested on: Human-human hybridoma HB4C5 cells; conditions: spermine 2.4 mM or higher; cited from earlier work

In the case of `Cl.Cl.Cl.Cl.NCCCNCCCCNCCCN` [spermine, spermine tetrahydrochloride], the “Effect of high exogenous concentration on cells” value [1] is given as “inhibition of cell growth and/or result in cell death”, the Cell growth [2] is given as “suppressed cell growth” and the “Time after which viability declined” value [2] is given as 3 days.
